## Binding of CDR-mutated scFvs to a peptide of the spike HR2 region

All variants were tested on one target, the spike HR2 peptide PDVDLGDISGINAS (SARS-CoV-2).

Parent: Ab-14, a human scFv built as VH, a 15-residue (Gly4Ser)3 linker, VL. Only the CDRs of the heavy chain vary.
VH: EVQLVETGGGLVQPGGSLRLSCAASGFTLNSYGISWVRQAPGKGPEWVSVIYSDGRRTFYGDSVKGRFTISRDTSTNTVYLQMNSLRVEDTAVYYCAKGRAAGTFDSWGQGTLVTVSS
VL: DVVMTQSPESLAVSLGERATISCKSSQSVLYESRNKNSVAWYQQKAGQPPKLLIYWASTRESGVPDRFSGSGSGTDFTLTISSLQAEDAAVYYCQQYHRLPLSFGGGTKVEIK

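The starting antibody came from a phage panning campaign against this peptide. Variants in AAYL49 differ from the parent at up to three CDR positions; double and triple changes were sampled at random. The scFvs were displayed on barcoded MATa yeast, the peptide on MATalpha yeast. After mating in shaken culture at 30 °C for 16 h, diploids were selected and their barcode pairs sequenced. Scores were corrected for input abundance and mapped to Kd with protein pairs of known affinity run in the same pool. Mating was done three times.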

Positions count from residue 1 of the parent VH; S35L puts L in place of S. Numbers give log10(Kd / nM), so 0 is 1 nM and 3 is 1 µM. Smaller is tighter. A mean of the replicates is given; it leaves out those without a signal. Where no diploid with the target was found in any replicate, the entry reads "no signal": below detection, most likely a poor binder, though not proof of it. Three control strains display no target. For library AAYL49, 15% of the pairings with them gave a signal, with a median of 4.06 and one signal in twenty below 2.83, so weak values seen in few replicates may be background. For each scFv, signals with the empty controls are counted beside the result.

{"changes": "S35L/V50T/R57P", "log10 Kd (nM), mean": "no signal", "seen in": "0/3", "control signals": "0/9"}
{"changes": "T28P/I34D/S63Y", "log10 Kd (nM), mean": "5.43", "seen in": "1/3", "control signals": "4/9"}
{"changes": "F59S/G99W/T104K", "log10 Kd (nM), mean": "1.23", "seen in": "3/3", "control signals": "7/9"}
{"changes": "G26D/I34H/G61K", "log10 Kd (nM), mean": "3.02", "seen in": "1/3", "control signals": "0/9"}
{"changes": "T28D/L29Q/D54R", "log10 Kd (nM), mean": "5.51", "seen in": "1/3", "control signals": "2/9"}
{"changes": "S53P/Y60F/G103T", "log10 Kd (nM), mean": "3.52", "seen in": "1/3", "control signals": "0/9"}
{"changes": "R57H/Y60P/K65H", "log10 Kd (nM), mean": "no signal", "seen in": "0/3", "control signals": "1/9"}
{"changes": "Y52K/G61N/T104H", "log10 Kd (nM), mean": "4.04", "seen in": "1/3", "control signals": "3/9"}
{"changes": "G26I/I34V/S63M", "log10 Kd (nM), mean": "no signal", "seen in": "0/3", "control signals": "3/9"}
{"changes": "S35Y/F59C/D62F", "log10 Kd (nM), mean": "1.41", "seen in": "3/3", "control signals": "0/9"}
{"changes": "Y52N/S53M/T104R", "log10 Kd (nM), mean": "2.85", "seen in": "1/3", "control signals": "1/9"}
{"changes": "S35W/Y52L", "log10 Kd (nM), mean": "no signal", "seen in": "0/3", "control signals": "1/9"}
{"changes": "T28Y/S53G/K65W", "log10 Kd (nM), mean": "4.27", "seen in": "1/3", "control signals": "3/9"}
{"changes": "N30V/D54W/S63W", "log10 Kd (nM), mean": "3.23", "seen in": "1/3", "control signals": "2/9"}
{"changes": "I51M/K65W/G103I", "log10 Kd (nM), mean": "no signal", "seen in": "0/3", "control signals": "0/9"}
{"changes": "R57F/R100A", "log10 Kd (nM), mean": "2.76", "seen in": "1/3", "control signals": "4/9"}
{"changes": "F27H/G61W/A101P", "log10 Kd (nM), mean": "no signal", "seen in": "0/3", "control signals": "0/9"}
{"changes": "I51C/T58L/G99H", "log10 Kd (nM), mean": "4.36", "seen in": "2/3", "control signals": "5/9"}
{"changes": "T28K/L29E/F59L", "log10 Kd (nM), mean": "4.78", "seen in": "1/3", "control signals": "0/9"}
{"changes": "S35F/R57C/T58K", "log10 Kd (nM), mean": "no signal", "seen in": "0/3", "control signals": "0/9"}
{"changes": "S31P/V50I/T58D", "log10 Kd (nM), mean": "no signal", "seen in": "0/3", "control signals": "4/9"}
{"changes": "S31G/I34N/V64F", "log10 Kd (nM), mean": "no signal", "seen in": "0/3", "control signals": "0/9"}
{"changes": "N30Y/I34C/R57G", "log10 Kd (nM), mean": "no signal", "seen in": "0/3", "control signals": "0/9"}
{"changes": "I34K/R56Y/Y60Q", "log10 Kd (nM), mean": "4.87", "seen in": "2/3", "control signals": "1/9"}
{"changes": "G26Q/F27S/T28W", "log10 Kd (nM), mean": "2.11", "seen in": "3/3", "control signals": "0/9"}
{"changes": "F27I/S63D/K65H", "log10 Kd (nM), mean": "4.15", "seen in": "2/3", "control signals": "1/9"}
{"changes": "T28Y/D54Q/R57F", "log10 Kd (nM), mean": "no signal", "seen in": "0/3", "control signals": "0/9"}

Values reported by Engelhart et al. 2022, doi:10.1038/s41597-022-01779-4 (FLAb copy).